# Yeast mating assay 1: variants of the scFv Ab-14

From the AlphaSeq antibody data of Engelhart et al. 2022 (doi:10.1038/s41597-022-01779-4), copy in the FLAb collection.

Target: peptide PDVDLGDISGINAS, taken from heptad repeat 2 (HR2) of SARS-CoV-2 spike.

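Library AAYL49 holds single substitutions and randomly drawn double and triple substitutions in the CDRs. Affinity was read by AlphaSeq, a pooled yeast mating assay with surface-displayed partners. Binding brings cells together so that they mate, and sequencing counts the barcode pairs among the diploids. Scores were corrected for input abundance and mapped to Kd with protein pairs of known affinity run in the same pool. There are three technical replicates.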

Parent: Ab-14, a human scFv built as VH, three GGGGS repeats, VL. Only the CDRs of the heavy chain vary.
VH: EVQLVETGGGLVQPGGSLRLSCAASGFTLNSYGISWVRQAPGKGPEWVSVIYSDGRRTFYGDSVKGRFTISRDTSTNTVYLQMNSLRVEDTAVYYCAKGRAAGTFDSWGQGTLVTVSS
VL: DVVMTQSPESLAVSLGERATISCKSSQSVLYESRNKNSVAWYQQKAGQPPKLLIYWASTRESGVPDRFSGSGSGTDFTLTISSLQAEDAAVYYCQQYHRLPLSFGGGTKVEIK

Variants are written as CDR1, CDR2 and CDR3 of the heavy chain (limits as in the source). Parent: GFTLNSYGIS, VIYSDGRRTFYGDSVK, GRAAGTFDS. The read-out is the apparent dissociation constant on a log10 scale (nM): the lower, the stronger. The mean shown is taken over the replicates in which the pair was detected. A pair that was not seen in that replicate is written "n.d."; this usually means weak binding, but a binder can also be missed.

CDR-H1 | CDR-H2 | CDR-H3 | replicates, log10 nM | mean, log10 nM | control signals
GFTLNSYGAS | VIYSAGRRTFYGDSVK | GRAAFTFDS | n.d. / n.d. / n.d. | n.d. | 0 of 9
GWYLNSYGIS | VIASDGRRTFYGDSVK | GRAAGTFDS | 3.58 / n.d. / 4.20 | 3.89 | 0 of 9
QFTLNSYGIS | VIGSDGRRTFYGDSYK | GRAAGTFDS | n.d. / 3.18 / n.d. | 3.18 | 2 of 9 (4.51)
GFTLNLYGIH | VIYSDGRRTAYGDSVK | GRAAGTFDS | 0.67 / 0.79 / 0.81 | 0.76 | 2 of 9 (5.09)
GFTFNSYGIS | VIYSDGRRTFYGDSVK | GRAAGTSDS | n.d. / n.d. / n.d. | n.d. | 1 of 9 (3.42)
GFTLNSYGIS | CIYSDGRRTFQGDSVK | GRAAGTFDP | n.d. / n.d. / n.d. | n.d. | 2 of 9 (2.61)
GFTLNSYGIS | VTYSDARRTFHGDSVK | GRAAGTFDS | 4.73 / 2.79 / 5.01 | 4.18 | 0 of 9
GFTLNSYGIH | VIYSDGRRTFYWDSVK | GRAAGTVDS | n.d. / n.d. / n.d. | n.d. | 0 of 9
GFTLNSYGES | VQYSDGRRTFYGDSAK | GRAAGTFDS | 3.74 / n.d. / n.d. | 3.74 | 1 of 9 (4.67)
GDTLNCIGIS | VIYSDGRRTFYGDSVK | GRAAGTFDS | n.d. / n.d. / n.d. | n.d. | 1 of 9 (3.10)
GFTLNSYGIS | VIYSDGRRTFDGQSVG | GRAAGTFDS | n.d. / n.d. / n.d. | n.d. | 0 of 9
GFTLNSYWIS | VIYSDGRRTFYGDTVK | QRAAGTFDS | n.d. / 3.74 / n.d. | 3.74 | 0 of 9
GFTLNSQGIS | VIYSDGRRTFMGDSVK | GRAIGTFDS | 2.55 / 2.56 / 2.85 | 2.65 | 3 of 9 (3.93)
GFALNSYGIS | VIYSDGRRTFYGDYVK | GRAAGPFDS | 3.94 / 1.85 / 3.82 | 3.20 | 1 of 9 (2.84)
GFTLNSYGIS | VIYSDGRRTQYGDSVK | GLAAGTFDP | n.d. / n.d. / n.d. | n.d. | 0 of 9
GFLLNSYGAS | VNYSDGRRTFYGDSVK | GRAAGTFDS | n.d. / n.d. / 4.91 | 4.91 | 3 of 9 (4.11)
GFTLNSYGIS | VIYWDGRRTFYGDSVK | GRAWGRFDS | n.d. / 3.17 / n.d. | 3.17 | 1 of 9 (4.61)
GFHYNSKGIS | VIYSDGRRTFYGDSVK | GRAAGTFDS | n.d. / n.d. / n.d. | n.d. | 1 of 9 (3.83)
GFTLNSYGIS | VIYSDERRIFYPDSVK | GRAAGTFDS | n.d. / n.d. / n.d. | n.d. | 1 of 9 (3.31)
GFTLNSYGIS | VIYSDGRQTFYGDSVK | SRAMGTFDS | 2.61 / n.d. / 2.46 | 2.53 | 0 of 9
GFTLNSYGIW | VIYSLGRRTFYGMSVK | GRAAGTFDS | 3.85 / 4.26 / n.d. | 4.05 | 2 of 9 (4.03)
FFTLNSYGIP | VIYSDGRRTFYGDDVK | GRAAGTFDS | 4.16 / 3.98 / n.d. | 4.07 | 7 of 9 (4.50)
GFTLNSYGIS | VIYSDGLRTFYGDSVW | GRAAGTFDS | 1.49 / 1.64 / 1.55 | 1.56 | 1 of 9 (4.47)
GFTLNSYGCS | VIYSDGRRTFYADCVK | GRAAGTFDS | n.d. / n.d. / n.d. | n.d. | 0 of 9
TFTLNSYGIS | SIYSDGRRTFYGDSVK | GRAAGTFDS | n.d. / n.d. / n.d. | n.d. | 2 of 9 (3.12)
GFYLNSYGIS | VIYSDGRRTFYGDSVK | GRAAGTYDS | n.d. / n.d. / n.d. | n.d. | 1 of 9 (3.30)
GFTLNSDGIS | VIYSCGRRTFYCDSVK | GRAAGTFDS | 4.52 / n.d. / n.d. | 4.52 | 1 of 9 (4.01)
GFTLWSMGIS | VIYSDGRRTFYGDSVK | LRAAGTFDS | 4.75 / n.d. / n.d. | 4.75 | 2 of 9 (3.32)
GFTLNSYGIS | VIYSDGRITFTDDSVK | GRAAGTFDS | n.d. / n.d. / n.d. | n.d. | 0 of 9
GFTLNSYGIV | VIYYDGRRTFYGDSVK | GRMAGTFDS | n.d. / n.d. / n.d. | n.d. | 0 of 9

As a blank, each scFv also met three strains without target: over library AAYL49, 15% of these pairings were detected, typically at 4.06 and seldom below 2.83. The control count says in how many pairings with the empty strains this scFv gave a signal, with their mean in brackets.